The values that follow come from ChEMBL document CHEMBL1155518, “Synthesis and structure-activity relationships of long-acting beta2 adrenergic receptor agonists incorporating metabolic inactivation: an antedrug approach” (J Med Chem, 2010).

The chains behind the UniProt entries cited, without tags or fusion partners.
UniProt P07550, whole entry: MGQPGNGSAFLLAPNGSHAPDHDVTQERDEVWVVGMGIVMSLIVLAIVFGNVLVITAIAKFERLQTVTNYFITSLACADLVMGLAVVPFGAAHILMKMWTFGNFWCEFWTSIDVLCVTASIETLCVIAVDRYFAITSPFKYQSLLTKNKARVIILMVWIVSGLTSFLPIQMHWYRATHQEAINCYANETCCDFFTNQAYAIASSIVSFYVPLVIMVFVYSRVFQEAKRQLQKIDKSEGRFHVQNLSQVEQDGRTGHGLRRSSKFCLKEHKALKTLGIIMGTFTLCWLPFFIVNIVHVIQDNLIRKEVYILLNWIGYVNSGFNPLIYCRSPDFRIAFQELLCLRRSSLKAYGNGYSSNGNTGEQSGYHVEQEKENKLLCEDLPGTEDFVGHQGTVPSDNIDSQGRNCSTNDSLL

The target in experiment [1] is Beta-2 adrenergic receptor (Homo sapiens, UniProt P07550).
The species named for experiment [2] is Cavia porcellus. Nature of the experiment: Bronchodialatory activity against electrically-stimulated contraction in guinea pig trachea assessed as inhibition of recovery of contractile effect measured after 3 hrs of drug washout. It is filed as functional, tissue-based.
The species named for experiment [3] is Cavia porcellus. Briefly: Bronchodialatory activity against electrically-stimulated contraction in guinea pig trachea assessed as inhibition of recovery of contractile effect measured after 1 hr of drug washout. It is filed as functional, tissue-based.

Each structure is given as a SMILES string. The source made the active and inactive calls. No cut-off for these calls is given here.

In general, EC50 refers to the concentration at which the effect is half-maximal. Low values mean a more potent agent, high ones a less potent agent. In turn, `CC(=O)O.OCc1cc([C@@H](O)CNCCCCCCOCCOCc2c(Cl)cccc2Cl)ccc1O` [VILANTEROL ACETATE] gave an EC50 in experiment [1] of 398 pM. As for `COc1ccc(C[C@@H](C)NC[C@H](O)c2ccc(O)c(NC=O)c2)cc1`, the result in the experiment filed under Cavia porcellus [2] and in the experiment listed under Cavia porcellus [3] was inactive.
